Source: patent US8828401B2, “Cytotoxic peptides and antibody drug conjugates thereof” (Pfizer Inc., priority 2011, dated 2014)

What was measured:
HCC2429 lung xenografts = HCC2429 lung xenografts with anti-Notch ADCs; format: in vivo, nude (Nu/Nu) female mice; conditions: humanized ADCs; Q4dx4, doses of Tables 12 and 13
Experimental: (§1) Humanized anti-Notch antibodies, hu28 and hu75, and rat-human chimeric anti-Notch antibodies, ch28 and ch75, were conjugated to various linker-payload combinations and tested in 37622A1 non-small cell lung cancer (NSCLC), HCC2429 lung cancer, MDA-MB-468 breast cancer and N87 gastric cancer xenograft models. For each model described below the first dose was given on Day 0. The tumors were measured at least once a week and their volume was calculated with the formula: tumor volume (mm^3)=0.5×(tumor width^2)(tumor length). The mean tumor volumes (±S.E.M.) for each treatment group were calculated having a maximum of 10 animals and a minimum of 6 animals to be included.
Similar in vivo experiments were performed with the HCC2429 lung cancer cell line as described above. […] When the tumors reached a volume of 200 to 400 mm^3, the tumors were staged to ensure uniformity of the tumor mass among various treatment groups. The HCC2429 lung model was dosed intraveneously Q4dx4 with PBS vehicle, humanized anti-Notch ADCs and control huNeg-8.8 ADCs at the doses provided in Tables 12 and 13.

N87 gastric xenografts = N87 gastric xenografts with anti-Notch ADCs; format: in vivo, nude (Nu/Nu) female mice; conditions: for tumor volume (mm^3 ± SEM): vc6780 study
Experimental: as §1
Similar in vivo experiments were performed with the N87 gastric cancer cell line as described above. […] When the tumors reached a volume of 250 to 450 mm^3, the tumors were staged to ensure uniformity of the tumor mass among various treatment groups. The N87 gastric model was dosed intraveneously Q4dx4 with PBS vehicle, humanized anti-Notch ADCs, control huNeg-8.8 ADCs and cisplatin at the doses provided in Tables 16 and 17.

HCC2429 (lung cancer) = test: In vitro cytotoxicity assay with anti-Notch ADCs (MTS); format: cell-based
Experimental: (§2) The effects of anti-Notch ADCs were assessed on 1) cell lines endogenously expressing Notch protein: HCC2429 (lung cancer), OVCAR3 (ovarian cancer) and MDA-MB-468 (breast cancer), 2) cell lines engineered to over-express Notch protein: MDA-MB-468/hNotch and U2OS/hNotch, and 3) a negative control cell line (SW900) using an MTS cellular viability indicator (Promega, Madison, Wis.). These cell lines were cultured with increasing concentrations of anti-Notch ADCs comprising humanized anti-Notch antibodies, hu28 and hu75, and rat-human chimeric anti-Notch antibodies, ch28 and ch75, conjugated to various linker-payload combinations of the present invention. As a specificity control for the anti-Notch-ADCs, non-targeted control-ADCs (huNeg8.8-ADCs or ch2H6-ADCs) were also tested on the same cell lines. After four days, viability of each culture was assessed. IC50 values were calculated by logistic non-linear regression and presented as ng Ab/mL. The drug antibody ratio (DAR) is also provided.

OVCAR3 (ovarian cancer) = test: as above; format: cell-based
Experimental: as §2

MDA-MB-468/hNotch = test: as above; format: cell-based
Experimental: as §2

[1] = first of two individual repeats
[2] = second of two individual repeats

B1: hu75-vc6780 (conjugate)
heavy: EVQLVESGGGLVQPGGSLRLSCAASGYAFTDYWMTWVRQAPGKGLEWVAEISPNSGGTNFNEKFKGRFTISVDNAKNSLYLQMNSLRAEDTAVYYCARGEIRYNWFAYWGQGTLVTVSSASTKGPSVFPLAPSSKSTSGGTAALGCLVKDYFPEPVTVSWNSGALTSGVHTFPAVLQSSGLYSLSSVVTVPSSSLGTQTYICNVNHKPSNTKVDKKV[human IgG1 Fc left out]
light: DIQMTQSPSSLSASVGDRVTITCKASQNVGNNIAWYQQKPGKAPKLLIYYASNRYTGVPSRFSGSGYGTDFTLTISSLQPEDFATYYCQRLYNSPFTFGGGTKVEIKRTVAAPSVFIFPPSDEQLKSGTASVVCLLNNFYPREAKVQWKVDNALQSGNSQESVTEQDSKDSTYSLSSTLTLSKADYEKHKVYACEVTHQGLSSPVTKSFNRGEC
effect on growth of HCC2429 lung xenografts (in words) (HCC2429 lung xenografts): inhibited growth of HCC2429 lung xenografts in a dose-dependent manner | effect on growth of N87 gastric xenografts (in words) (N87 gastric xenografts; humanized ADCs, Q4dx4, doses of Tables 16 and 17): inhibited growth of N87 gastric xenografts in a dose-dependent manner | tumor volume (mm^3 ± SEM) (N87 gastric xenografts; Dose 1 mg/kg Q4dx4 iv, DAY 0): 359 ± 16 mm^3 | tumor volume (mm^3 ± SEM) (N87 gastric xenografts; Dose 1 mg/kg Q4dx4 iv, DAY 4): 552 ± 40 mm^3 | tumor volume (mm^3 ± SEM) (N87 gastric xenografts; Dose 1 mg/kg Q4dx4 iv, DAY 8): 568 ± 62 mm^3 | tumor volume (mm^3 ± SEM) (N87 gastric xenografts; Dose 1 mg/kg Q4dx4 iv, DAY 11): 591 ± 63 mm^3 | tumor volume (mm^3 ± SEM) (N87 gastric xenografts; Dose 1 mg/kg Q4dx4 iv, DAY 14): 666 ± 77 mm^3 | tumor volume (mm^3 ± SEM) (N87 gastric xenografts; Dose 1 mg/kg Q4dx4 iv, DAY 18): 642 ± 90 mm^3 | tumor volume (mm^3 ± SEM) (N87 gastric xenografts; Dose 1 mg/kg Q4dx4 iv, DAY 21): 710 ± 117 mm^3 | tumor volume (mm^3 ± SEM) (N87 gastric xenografts; Dose 1 mg/kg Q4dx4 iv, DAY 25): 748 ± 138 mm^3 | tumor volume (mm^3 ± SEM) (N87 gastric xenografts; Dose 1 mg/kg Q4dx4 iv, DAY 28): 763 ± 145 mm^3 | tumor volume (mm^3 ± SEM) (N87 gastric xenografts; Dose 1 mg/kg Q4dx4 iv, DAY 33): 991 ± 239 mm^3 | tumor volume (mm^3 ± SEM) (N87 gastric xenografts; Dose 3 mg/kg Q4dx4 iv, DAY 0): 351 ± 20 mm^3 | tumor volume (mm^3 ± SEM) (N87 gastric xenografts; Dose 3 mg/kg Q4dx4 iv, DAY 4): 545 ± 37 mm^3 | tumor volume (mm^3 ± SEM) (N87 gastric xenografts; Dose 3 mg/kg Q4dx4 iv, DAY 8): 511 ± 31 mm^3 | tumor volume (mm^3 ± SEM) (N87 gastric xenografts; Dose 3 mg/kg Q4dx4 iv, DAY 11): 544 ± 43 mm^3 | tumor volume (mm^3 ± SEM) (N87 gastric xenografts; Dose 3 mg/kg Q4dx4 iv, DAY 14): 558 ± 36 mm^3 | tumor volume (mm^3 ± SEM) (N87 gastric xenografts; Dose 3 mg/kg Q4dx4 iv, DAY 18): 494 ± 41 mm^3 | tumor volume (mm^3 ± SEM) (N87 gastric xenografts; Dose 3 mg/kg Q4dx4 iv, DAY 21): 534 ± 41 mm^3 | tumor volume (mm^3 ± SEM) (N87 gastric xenografts; Dose 3 mg/kg Q4dx4 iv, DAY 25): 628 ± 58 mm^3 | tumor volume (mm^3 ± SEM) (N87 gastric xenografts; Dose 3 mg/kg Q4dx4 iv, DAY 28): 645 ± 57 mm^3 | tumor volume (mm^3 ± SEM) (N87 gastric xenografts; Dose 3 mg/kg Q4dx4 iv, DAY 33): 730 ± 66 mm^3 | tumor volume (mm^3 ± SEM) (N87 gastric xenografts; Dose 3 mg/kg Q4dx4 iv, DAY 36): 850 ± 74 mm^3 | tumor volume (mm^3 ± SEM) (N87 gastric xenografts; Dose 3 mg/kg Q4dx4 iv, DAY 39): 881 ± 88 mm^3 | tumor volume (mm^3 ± SEM) (N87 gastric xenografts; Dose 3 mg/kg Q4dx4 iv, DAY 42): 1020 ± 99 mm^3 | tumor volume (mm^3 ± SEM) (N87 gastric xenografts; Dose 3 mg/kg Q4dx4 iv, DAY 46): 1097 ± 129 mm^3 | tumor volume (mm^3 ± SEM) (N87 gastric xenografts; Dose 3 mg/kg Q4dx4 iv, DAY 50): 1162 ± 134 mm^3 | tumor volume (mm^3 ± SEM) (N87 gastric xenografts; Dose 3 mg/kg Q4dx4 iv, DAY 56): 1331 ± 187 mm^3 | tumor volume (mm^3 ± SEM) (N87 gastric xenografts; Dose 10 mg/kg Q4dx4 iv, DAY 0): 349 ± 8 mm^3 | tumor volume (mm^3 ± SEM) (N87 gastric xenografts; Dose 10 mg/kg Q4dx4 iv, DAY 4): 468 ± 18 mm^3 | tumor volume (mm^3 ± SEM) (N87 gastric xenografts; Dose 10 mg/kg Q4dx4 iv, DAY 8): 351 ± 24 mm^3 | tumor volume (mm^3 ± SEM) (N87 gastric xenografts; Dose 10 mg/kg Q4dx4 iv, DAY 11): 316 ± 25 mm^3 | tumor volume (mm^3 ± SEM) (N87 gastric xenografts; Dose 10 mg/kg Q4dx4 iv, DAY 14): 269 ± 27 mm^3 | tumor volume (mm^3 ± SEM) (N87 gastric xenografts; Dose 10 mg/kg Q4dx4 iv, DAY 18): 224 ± 26 mm^3 | tumor volume (mm^3 ± SEM) (N87 gastric xenografts; Dose 10 mg/kg Q4dx4 iv, DAY 21): 192 ± 19 mm^3 | tumor volume (mm^3 ± SEM) (N87 gastric xenografts; Dose 10 mg/kg Q4dx4 iv, DAY 25): 227 ± 32 mm^3 | tumor volume (mm^3 ± SEM) (N87 gastric xenografts; Dose 10 mg/kg Q4dx4 iv, DAY 28): 244 ± 35 mm^3 | tumor volume (mm^3 ± SEM) (N87 gastric xenografts; Dose 10 mg/kg Q4dx4 iv, DAY 33): 267 ± 52 mm^3 | tumor volume (mm^3 ± SEM) (N87 gastric xenografts; Dose 10 mg/kg Q4dx4 iv, DAY 36): 300 ± 64 mm^3 | tumor volume (mm^3 ± SEM) (N87 gastric xenografts; Dose 10 mg/kg Q4dx4 iv, DAY 39): 323 ± 69 mm^3 | tumor volume (mm^3 ± SEM) (N87 gastric xenografts; Dose 10 mg/kg Q4dx4 iv, DAY 42): 350 ± 78 mm^3 | tumor volume (mm^3 ± SEM) (N87 gastric xenografts; Dose 10 mg/kg Q4dx4 iv, DAY 46): 380 ± 78 mm^3 | tumor volume (mm^3 ± SEM) (N87 gastric xenografts; Dose 10 mg/kg Q4dx4 iv, DAY 50): 415 ± 77 mm^3 | tumor volume (mm^3 ± SEM) (N87 gastric xenografts; Dose 10 mg/kg Q4dx4 iv, DAY 56): 504 ± 111 mm^3 | tumor volume (mm^3 ± SEM) (N87 gastric xenografts; Dose 10 mg/kg Q4dx4 iv, DAY 63): 581 ± 121 mm^3 | tumor volume (mm^3 ± SEM) (N87 gastric xenografts; Dose 10 mg/kg Q4dx4 iv, DAY 70): 726 ± 163 mm^3 | tumor volume (mm^3 ± SEM) (N87 gastric xenografts; Dose 10 mg/kg Q4dx4 iv, DAY 77): 797 ± 184 mm^3 | IC50 (ng Ab/mL) (HCC2429 (lung cancer); [1]): 214 ng Ab/mL | IC50 (ng Ab/mL) (HCC2429 (lung cancer); [2]): 630 ng Ab/mL | IC50 (ng Ab/mL) (OVCAR3 (ovarian cancer)): 254 ng Ab/mL | IC50 (ng Ab/mL) (MDA-MB-468/hNotch; [1]): 26 ng Ab/mL | IC50 (ng Ab/mL) (MDA-MB-468/hNotch; [2]): 25 ng Ab/mL
